# Measured values taken from patent US7384912B2, “Treatment of bone disorders with skeletal anabolic drugs” (Osteotrophin, LLC, priority 2002, dated 2008).
# System: ovariectomized (OVX) rats
# Assay: Biomechanical measures of strength in ovariectomized rats
# Type: in vivo, rat
# Details: 40 μg/kg/day s.c. once daily, 180 days
substance,measurement,value
hPTH-(1-34),Mid-Femur Young's Modulus (E),10.7 ± 0.4^ac Gpa
